# ChEMBL document CHEMBL4354824, “4-Aryl-1-oxa-4,9-diazaspiro[5.5]undecane Derivatives as Dual μ-Opioid Receptor Agonists and σ1 Receptor Antagonists for the Treatment of Pain” (J Med Chem, 2020)
# By UniProt entry, the sequences of proteins in these tests, tags left out.
# UniProt P35372, whole entry, looked up: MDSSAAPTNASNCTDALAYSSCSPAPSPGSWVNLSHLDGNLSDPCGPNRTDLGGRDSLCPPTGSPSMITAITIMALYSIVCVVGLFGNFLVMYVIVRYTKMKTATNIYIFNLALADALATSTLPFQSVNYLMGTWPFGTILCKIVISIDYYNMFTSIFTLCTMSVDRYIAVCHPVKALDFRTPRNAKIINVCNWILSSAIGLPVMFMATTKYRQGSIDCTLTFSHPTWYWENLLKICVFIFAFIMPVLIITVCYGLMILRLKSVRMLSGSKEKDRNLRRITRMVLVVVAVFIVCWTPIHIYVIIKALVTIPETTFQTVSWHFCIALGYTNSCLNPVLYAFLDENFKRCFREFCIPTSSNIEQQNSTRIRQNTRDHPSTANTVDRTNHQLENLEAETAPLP
# Activity calls are given as the source filed them. No cut-off for these calls is given here.
# Key:
# Mus musculus [1] = assay: Antinociceptive activity in mouse assessed as reduction in mechanical nociception at 25 ug dosed ipsilateral route measured after 5 mins post dose by paw pressure pain test
# Mus musculus [2] = assay: Antinociceptive activity in mouse assessed as reduction in mechanical nociception at 25 ug dosed ipsilateral route and concomitant administration of 32 mg/kg, sc sigma1 receptor agonist PRE-08452 and measured after 5 mins post dose by paw pressure pain test
# Mu-type opioid receptor = Mu-type opioid receptor (Homo sapiens, UniProt P35372); assay: Agonist activity at human MOR expressed in CHOK1 cells assessed as […] of cAMP accumulation incubated for 45 mins by HTRF assay relative to DAMGO; format: functional, cell-based
SMILES,Activity (Mus musculus [1]),Activity (Mus musculus [2]),Emax (Mu-type opioid receptor) [%]
O=C1N(c2cccnc2C(F)(F)F)CC2(CCN(CCc3ccccc3F)CC2)OC12CC2,Active,inactive,–
O=C1COC2(CCN(CCc3ccccc3)CC2)CN1c1ccccc1,–,–,76
